{
  "source": "patent US4801604A",
  "about": "(priority 1987, dated 1989)",
  "details_in_all_cases": "Example 7 Table 2, SC",
  "key": {"[1]": {"tested_on": "Female CF-1 derived Upjohn mice", "experiment": "Tail pinch analgesic test"}, "[2]": {"tested_on": "Female CF-1 derived Upjohn mice", "experiment": "Tail flick analgesic test"}, "[3]": {"tested_on": "Female CF-1 derived Upjohn mice", "experiment": "HCl writhing analgesic test"}},
  "data": [
    {"smiles": "O=C(Cc1ccc(Cl)c(Cl)c1)N[C@@H]1CCC[C@@H]1N1CCCC1", "note": "(relative stereo)", "values": [
      {"measurement": "Analgesic Screens ED50, Tail Pinch", "setting": "[1]", "result": 71, "unit": "mg/kg"},
      {"measurement": "Analgesic Screens ED50, Tail Flick", "setting": "[2]", "result": 63, "unit": "mg/kg"},
      {"measurement": "Analgesic Screens ED50, HCl Writhing", "setting": "[3]", "result": 71, "unit": "mg/kg"}
    ]}
  ]
}
